Key:
Type in all cases: cell-based
[1] = molecular target: T1, YYAA concatemer rat TRPV1 (two Y511A mutant subunits) (Rattus norvegicus, UniProt O35433, Y511A)
T1 construct: expressed in transfected cells; host or cells: TSA201 (HEK293T) cells, transient transfection; excised inside-out patches

Protein sequences, listed by entry. Tags and fused reporters are not part of them.
UniProt O35433, whole entry Y511A: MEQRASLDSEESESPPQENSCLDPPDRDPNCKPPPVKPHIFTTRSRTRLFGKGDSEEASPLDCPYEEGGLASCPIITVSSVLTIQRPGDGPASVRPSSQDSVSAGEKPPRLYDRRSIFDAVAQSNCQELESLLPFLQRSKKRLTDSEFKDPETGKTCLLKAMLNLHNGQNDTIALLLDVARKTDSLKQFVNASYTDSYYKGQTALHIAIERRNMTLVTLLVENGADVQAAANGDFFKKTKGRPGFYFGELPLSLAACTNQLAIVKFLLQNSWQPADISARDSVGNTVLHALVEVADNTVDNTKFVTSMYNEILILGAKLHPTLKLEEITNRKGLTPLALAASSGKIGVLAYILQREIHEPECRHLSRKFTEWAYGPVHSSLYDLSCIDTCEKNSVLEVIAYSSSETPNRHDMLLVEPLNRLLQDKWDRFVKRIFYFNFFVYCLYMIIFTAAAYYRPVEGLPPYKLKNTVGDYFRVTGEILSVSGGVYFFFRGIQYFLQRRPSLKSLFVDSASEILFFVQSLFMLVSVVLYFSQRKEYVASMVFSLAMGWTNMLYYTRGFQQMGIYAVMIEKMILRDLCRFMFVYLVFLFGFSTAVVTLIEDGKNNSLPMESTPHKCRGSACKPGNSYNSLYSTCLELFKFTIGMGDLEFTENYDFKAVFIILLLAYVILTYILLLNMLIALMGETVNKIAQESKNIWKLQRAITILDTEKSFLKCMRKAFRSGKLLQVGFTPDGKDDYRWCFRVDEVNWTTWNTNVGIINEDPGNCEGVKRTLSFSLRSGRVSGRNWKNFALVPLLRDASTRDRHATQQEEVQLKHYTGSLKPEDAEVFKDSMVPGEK
UniProt O35433, whole entry, stated change not applied: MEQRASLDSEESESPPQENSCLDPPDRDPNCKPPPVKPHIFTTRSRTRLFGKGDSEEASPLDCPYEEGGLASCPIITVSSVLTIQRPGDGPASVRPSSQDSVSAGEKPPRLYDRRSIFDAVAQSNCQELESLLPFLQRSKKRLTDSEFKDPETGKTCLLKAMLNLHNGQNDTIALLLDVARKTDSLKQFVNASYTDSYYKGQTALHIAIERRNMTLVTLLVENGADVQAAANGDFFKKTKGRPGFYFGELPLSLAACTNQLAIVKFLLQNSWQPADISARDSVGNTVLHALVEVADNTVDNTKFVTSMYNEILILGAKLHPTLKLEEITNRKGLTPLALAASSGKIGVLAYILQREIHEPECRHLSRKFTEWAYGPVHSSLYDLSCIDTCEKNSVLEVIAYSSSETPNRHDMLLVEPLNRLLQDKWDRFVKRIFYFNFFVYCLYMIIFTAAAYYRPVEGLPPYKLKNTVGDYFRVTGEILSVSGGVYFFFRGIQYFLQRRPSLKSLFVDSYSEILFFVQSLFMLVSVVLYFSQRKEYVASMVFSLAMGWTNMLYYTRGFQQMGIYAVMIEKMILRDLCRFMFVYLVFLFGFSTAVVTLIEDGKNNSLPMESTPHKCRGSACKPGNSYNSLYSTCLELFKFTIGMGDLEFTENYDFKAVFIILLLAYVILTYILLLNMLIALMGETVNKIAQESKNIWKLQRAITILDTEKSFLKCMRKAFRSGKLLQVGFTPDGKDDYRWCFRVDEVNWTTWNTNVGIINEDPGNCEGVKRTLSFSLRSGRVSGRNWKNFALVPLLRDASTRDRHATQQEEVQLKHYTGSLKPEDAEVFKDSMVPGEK

[2] = molecular target: T2, Y511A mutant subunit of rat TRPV1 (YYYA and YYAA concatemers) (Rattus norvegicus, UniProt O35433, Y511A)
T2 construct: expressed in transfected cells; host or cells: TSA201 (HEK293T) cells, transient transfection

[3] = molecular target: T3, wildtype (Y) subunit of rat TRPV1 concatemers (Rattus norvegicus, UniProt O35433)
T3 construct: expressed in transfected cells; host or cells: TSA201 (HEK293T) cells, transient transfection

COc1cc(CNC(=O)CCCC/C=C/C(C)C)ccc1O [capsaicin]
cooperative factor f [1]: 10.3 | cooperative factor f [2]: 10.7 | fY [3]: 10.7

Reference: article PMC10616419 (The Journal of Biological Chemistry, 2023)
